This note sets out measurements from ChEMBL document CHEMBL1148243, “Indoline derivatives as 5-HT(2C) receptor agonists” (Bioorg Med Chem Lett, 2004).

Amino acid sequences for entries named in this document (tags omitted). A change or cut given only in a name is not applied to a line headed by its entry.
UniProt P28223, whole entry: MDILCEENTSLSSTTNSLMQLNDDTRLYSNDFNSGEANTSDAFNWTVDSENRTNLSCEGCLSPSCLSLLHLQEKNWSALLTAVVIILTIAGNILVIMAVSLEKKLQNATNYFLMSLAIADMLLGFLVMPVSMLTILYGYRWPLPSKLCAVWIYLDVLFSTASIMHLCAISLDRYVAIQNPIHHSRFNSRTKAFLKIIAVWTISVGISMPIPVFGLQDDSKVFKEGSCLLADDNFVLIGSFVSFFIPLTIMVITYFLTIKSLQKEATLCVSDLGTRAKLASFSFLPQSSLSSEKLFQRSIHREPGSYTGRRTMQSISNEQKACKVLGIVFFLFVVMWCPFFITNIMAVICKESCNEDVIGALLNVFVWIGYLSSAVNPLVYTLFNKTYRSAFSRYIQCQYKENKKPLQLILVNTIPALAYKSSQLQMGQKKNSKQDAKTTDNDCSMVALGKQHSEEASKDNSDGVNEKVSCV
UniProt P41595, whole entry: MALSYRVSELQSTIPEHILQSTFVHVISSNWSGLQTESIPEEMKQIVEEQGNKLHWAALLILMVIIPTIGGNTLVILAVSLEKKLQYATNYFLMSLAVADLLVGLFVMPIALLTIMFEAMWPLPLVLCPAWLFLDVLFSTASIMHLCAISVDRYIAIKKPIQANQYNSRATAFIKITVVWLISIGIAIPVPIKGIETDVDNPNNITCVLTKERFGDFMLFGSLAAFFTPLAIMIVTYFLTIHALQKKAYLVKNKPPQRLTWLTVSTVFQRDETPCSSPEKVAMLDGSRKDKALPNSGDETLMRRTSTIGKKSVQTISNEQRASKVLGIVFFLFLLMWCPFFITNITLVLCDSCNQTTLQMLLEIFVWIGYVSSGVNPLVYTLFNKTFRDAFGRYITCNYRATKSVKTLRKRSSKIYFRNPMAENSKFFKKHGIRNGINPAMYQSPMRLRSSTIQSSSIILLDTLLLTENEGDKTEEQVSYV
UniProt P28335: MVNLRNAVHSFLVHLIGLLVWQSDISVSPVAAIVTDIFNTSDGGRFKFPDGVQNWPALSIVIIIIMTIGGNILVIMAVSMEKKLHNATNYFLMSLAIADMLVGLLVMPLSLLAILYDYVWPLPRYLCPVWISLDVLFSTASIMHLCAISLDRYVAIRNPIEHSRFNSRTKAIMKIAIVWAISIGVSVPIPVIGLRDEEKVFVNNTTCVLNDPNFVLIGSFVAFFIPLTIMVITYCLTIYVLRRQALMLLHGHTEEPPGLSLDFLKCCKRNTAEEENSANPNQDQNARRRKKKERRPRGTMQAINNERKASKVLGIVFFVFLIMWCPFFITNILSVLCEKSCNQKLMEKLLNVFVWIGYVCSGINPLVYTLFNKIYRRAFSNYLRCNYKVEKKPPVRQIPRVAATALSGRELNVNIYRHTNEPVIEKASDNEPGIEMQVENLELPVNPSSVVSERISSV

Each structure is given as a SMILES string.

One may read the EC50 as the midpoint of the concentration-response curve. High values mean a less potent agent, low ones a more potent agent. A word on the Ki: it is a dissociation constant, usually derived from enzyme kinetics or from competition with a known ligand. The low end stands for a stronger hold on the target, the high end for a looser hold on the target.

In assay [1] the target is T1, 5-hydroxytryptamine receptor 2A (Homo sapiens, UniProt P28223). Nature of the assay: Functional activity against human 5-hydroxytryptamine 2A receptor expressed in CHO cells using fluorometric imaging plate reader. In kind it is cell-based.
For assay [2], the target named is T1, 5-hydroxytryptamine receptor 2A. The assay is described as follows: Affinity for human 5-hydroxytryptamine 2A receptor expressed in mammalian cell line.
In assay [3] the target is T2, 5-hydroxytryptamine receptor 2B (Homo sapiens, UniProt P41595). The assay is described as follows: Functional activity against human 5-hydroxytryptamine 2B receptor expressed in CHO cells using fluorometric imaging plate reader. It is filed as cell-based.
The target of assay [4] is T2, 5-hydroxytryptamine receptor 2B. The assay is described as follows: Affinity for human 5-hydroxytryptamine 2B receptor expressed in mammalian cell line.
Assay [5] concerns the target T3, 5-hydroxytryptamine receptor 2C (Homo sapiens, UniProt P28335). Nature of the assay: Functional activity against human 5-hydroxytryptamine 2C receptor expressed in CHO cells using fluorometric imaging plate reader. In kind it is cell-based.
The target of assay [6] is T3, 5-hydroxytryptamine receptor 2C. Nature of the assay: Affinity for human 5-hydroxytryptamine 2C receptor expressed in mammalian cell line.

Take `Clc1cccc(N2CCNCC2)c1` [CHLOROPHENYLPIPERAZINE]: the figures for the 50% effective concentration (EC50) in assay [1], in assay [3] and in assay [5] were 75 nM, over 1000 nM and 26 nM, respectively. Moreover, the Ki in assay [2] amounted to 54 nM; in assay [4], 32 nM; in assay [6], 9 nM.
